The source of these data is patent US20230190943A1, “ALGINIC ACID DERIVATIVE BONDED TO NONSTEROIDAL ANTI-INFLAMMATORY COMPOUND” (MOCHIDA PHARMACEUTICAL CO., LTD., priority 2018, published 2023).

Series [1] in a line: Release test of free diclofenac from conjugates in 20 mM sodium phosphate buffer, 37°C (Example 11). Type of series: physicochemical. The settings on record: for Release Rate in Release Test at pH 5.3: pH 5.3, 37°C; for Release Rate in Release Test at pH 7.0: pH 7.0, 37°C. On the procedure:
(§1) (set temperature of air conditioner). After confirming that no gel was formed, this solution was dispensed. Immediately after the dissolution, the amount of free diclofenac present in each solution was measured by LC-MS/MS as an initial state (day 0 of storage). Also, the other dispensed solutions were incubated at 37° C. for 1, 3, and 7 days, and then the amount of free diclofenac was measured. […] The MS conditions are as follows. • Ionization mode: ESI-negative • Ion source temperature: 300 degrees • Capillary voltage: -4000 V

Series [2] can be described thus: Release test of free diclofenac, felbinac, ketoprofen or naproxen in sodium phosphate buffer (Example 23). The format is physicochemical. On the procedure:
as §1

The mark [3] stands for this setting: pH 5.3, day 1, free drug (diclofenac, felbinac, ketoprofen or naproxen).
Setting [4] is: pH 5.3, day 3, free drug (diclofenac, felbinac, ketoprofen or naproxen).
Where [5] appears, read: pH 5.3, day 7, free drug (diclofenac, felbinac, ketoprofen or naproxen).
Setting [6] is: pH 7.0, day 1, free drug (diclofenac, felbinac, ketoprofen or naproxen).
[7] abbreviates: pH 7.0, day 3, free drug (diclofenac, felbinac, ketoprofen or naproxen).
Setting [8] is: pH 7.0, day 7, free drug (diclofenac, felbinac, ketoprofen or naproxen).

In the case of “Diclofenac-(1-Amino-2-Propanol)-Alginic Acid Derivative [Compound 9]”, the “Release Rate in Release Test at pH 5.3” value in series [1] (Day 1, 0.1% w/w conjugate) is recorded as 0.0%; in series [1] (Day 3, 0.1% w/w conjugate), 0.0%; in series [1] (Day 7, 0.1% w/w conjugate) it was 0.1%. Also, the “Release Rate in Release Test at pH 7.0” value in series [1] (Day 1, 0.1% w/w conjugate) is reported as 0.0%; in series [1] (Day 3, 0.1% w/w conjugate), 0.7%; in series [1] (Day 7, 0.1% w/w conjugate) it was 1.9%.
“Ketoprofen-(2-Amino-N-(2-Hydroxyethyl)Acetamide)-Alginic Acid Derivative [Compound 88]”: the entries for the “Release Rate in Release Test at pH 5.3” value in series [2] (setting [3]), in series [2] (setting [4]) and in series [2] (setting [5]) were 0.1%, 0.2% and 0.3%, respectively. Further, the “Release Rate in Release Test at pH 7.0” value in series [2] (setting [6]) is 0.4%; in series [2] (setting [7]), 1.4%; in series [2] (setting [8]) it was 3.4%.
“Naproxen-(2-Amino-N-(2-Hydroxyethyl)Acetamide)-Alginic Acid Derivative [Compound 92]”: the “Release Rate in Release Test at pH 5.3” value in series [2] (setting [3]) is recorded as 0.2%; in series [2] (setting [4]), 0.1%; in series [2] (setting [5]), 0.2%. In addition, the “Release Rate in Release Test at pH 7.0” value in series [2] (setting [6]) is listed as 0.2%; in series [2] (setting [7]) it was 0.8%; in series [2] (setting [8]), 1.7%.
